Data from patent US20110039935A1, “USE OF PHARMACOLOGICALLY ACTIVE CHEMICAL COMPOUNDS” (ENTRESS AB, priority 2007, published 2011).

Assay: Solubility of AKG salts

Row | SMILES | solubility | solubility relative to Ca−AKG
1 | O=C([O-])CCC(=O)C(=O)[O-].[Ca+2] [Ca−AKG, calcium alpha-ketoglutarate] | 2 g per 100 ml | –
2 | O=C([O-])CCC(=O)C(=O)[O-].[Na+].[Na+] [Na−AKG, sodium alpha-ketoglutarate] | – | 50 times higher
